Measured values: PubChem BioAssay AID435005 (Broad Institute, 2010)
The list shows a part of the results, in another mix than the full data. Activity calls are given as the source filed them.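 Rule for the calls: active = Every replicate reaches about 75%, or at least half do and their mean reaches it too (limit read from the data); inconclusive = At least half of replicates reach the limit but their mean does not; inactive = Under half of replicates reach the limit.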

Test: INS-1E beta cell survival under cytokines – luminescence, primary screen (AID 435005);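 note: 0% = cytokine-treated negative control wells and 100% = positive control rescue; higher means more ATP so stronger rescue from cytokine killing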
Conditions: INS-1E cytokine-induced death, ATP luminescence, 48 h; active compounds read high; percent of positive-control rescue, neutral wells zero; concentration not given here

Question: Which protection from apoptosis does the source give for `CN(C)c1ccc(C(=O)NCC2(N3CCCCC3)CCCCC2)cc1` here?
Answer: inactive: -6.55%

Question: For `O=C(NCC1(N2CCCCC2)CCCCC1)c1ccco1`, which protection from apoptosis is on record?
Answer: inactive: 0.524%

Question: With `CCN1CCC(Nc2cccc(F)c2)CC1` as the molecule, how does the protection from apoptosis read?
Answer: inactive: 0.623%

Question: For `Fc1ccccc1NC1CCN(Cc2ccccc2)CC1`, which protection from apoptosis is on record?
Answer: inactive: -2%

Question: Which protection from apoptosis does the source give for `Cc1ccc(C(=O)NCC2(N3CCCCC3)CCCCC2)o1` here?
Answer: inactive: 0.319%

Question: For `COc1cc(OC)cc(C(=O)NCC2(N3CCCCC3)CCCCC2)c1`, which protection from apoptosis is on record?
Answer: inactive: -3.88%

Question: For `CN1CCC(Nc2ccc(Cl)cc2)CC1`, which protection from apoptosis is on record?
Answer: inactive: 0.511%

Question: For `CCC(CO)(C(=O)OC1CN2CCC1CC2)c1ccccc1` (stereo not given), which protection from apoptosis is on record?
Answer: inactive: -3.75%

Question: With `COc1cc(OC)cc(C(=O)NCC2(N3CCOCC3)CCCCC2)c1` as the molecule, how does the protection from apoptosis read?
Answer: inactive: -4.29%

Question: Which protection from apoptosis does the source give for `COc1cccc(C(=O)N(c2cc(C)cc(C)c2)C2CCN(C(=O)OC(C)(C)C)CC2)c1` here?
Answer: inactive: 15.1%

Question: For `CCCOc1ccc(C(=O)NCC2(N(C)C)CCCCC2)cc1`, which protection from apoptosis is on record?
Answer: inactive: 1.34%

Question: Which protection from apoptosis does the source give for `O=C(O)C1(Nc2ccccc2)CCN(Cc2ccccc2)CC1` here?
Answer: inactive: -6.96%

Question: Which protection from apoptosis does the source give for `CC(C)(C)OC(=O)N1CCC(Nc2ccccc2)CC1` here?
Answer: inactive: 0.348%

Question: With `CN1CCC(Nc2ccc(F)c(Cl)c2)CC1` as the molecule, how does the protection from apoptosis read?
Answer: inactive: 4.06%

Question: With `CCOc1ncccc1C(=O)NCC1(N2CCOCC2)CCCCC1` as the molecule, how does the protection from apoptosis read?
Answer: inactive: 1.45%

Question: With `CCc1cc(C(=O)NCC2(N3CCCCC3)CCCCC2)sc1C` as the molecule, how does the protection from apoptosis read?
Answer: inactive: -5.8%

Question: Which protection from apoptosis does the source give for `N/C(=N\O)c1c(N)no[n+]1[O-]` here?
Answer: inactive: -0.134%

Question: Which protection from apoptosis does the source give for `CCOC(=O)N1CCC(Nc2ccc(C)cc2)CC1` here?
Answer: inactive: -12%

Question: With `COc1ccc(C(=O)NCC2(N3CCOCC3)CCCCC2)cc1OC` as the molecule, how does the protection from apoptosis read?
Answer: inactive: -10.2%

Question: For `O=C(NCC1(N2CCOCC2)CCCCC1)c1cc(Br)ccc1Cl`, which protection from apoptosis is on record?
Answer: inactive: 21.3%

Question: Which protection from apoptosis does the source give for `COc1cc(C(=O)NCC2(N3CCOCC3)CCCCC2)cc(OC)c1C` here?
Answer: inactive: 4.34%

Question: With `CCCN1CCC(Nc2cc(OC)cc(OC)c2)CC1` as the molecule, how does the protection from apoptosis read?
Answer: inactive: -17.6%

Question: Which protection from apoptosis does the source give for `c1ccc(CN2CCC(Nc3ccccc3)CC2)cc1` here?
Answer: inactive: -3.77%

Question: With `CN(C)C1(CNC(=O)c2cccc(C#N)c2)CCCCC1` as the molecule, how does the protection from apoptosis read?
Answer: inactive: -3.11%

Question: With `CC(C)(C)OC(=O)N1CCC(N(C(=O)c2ccccc2)c2ccc(Cl)cc2)CC1` as the molecule, how does the protection from apoptosis read?
Answer: inactive: 6.61%

Question: Which protection from apoptosis does the source give for `N#Cc1ccc(C(=O)NCC2(N3CCCCC3)CCCCC2)cc1` here?
Answer: inactive: -3.29%

Question: Which protection from apoptosis does the source give for `CN1CCN(CCOC(=O)C(O)(c2ccccc2)c2ccccc2)CC1` here?
Answer: inactive: 2.61%

Question: With `COc1ccc(NC2CCN(C(=O)OC(C)(C)C)CC2)cc1` as the molecule, how does the protection from apoptosis read?
Answer: inactive: 3.24%

Question: With `COc1cc(C(=O)NCC2(N3CCCCC3)CCCCC2)ccc1OC(F)F` as the molecule, how does the protection from apoptosis read?
Answer: inactive: -1.41%

Question: For `O=C(NCC1(N2CCOCC2)CCCCC1)c1cc(=O)[nH]c2ccccc12`, which protection from apoptosis is on record?
Answer: inactive: -7.7%

Question: Which protection from apoptosis does the source give for `O=C(NCC1(N2CCCCC2)CCCCC1)c1cccc(C(F)(F)F)c1` here?
Answer: inactive: -2.1%

Question: Which protection from apoptosis does the source give for `O=C(NCC1(N2CCCCC2)CCCCC1)c1cccc([N+](=O)[O-])c1` here?
Answer: inactive: -3.87%

Question: With `N#CC1(Nc2ccccc2)CCN(CCc2ccccc2)CC1` as the molecule, how does the protection from apoptosis read?
Answer: inactive: -2.14%

Question: For `CCN1CCC(Nc2ccc(Cl)cc2)CC1`, which protection from apoptosis is on record?
Answer: inactive: 1.53%

Question: For `O=C(NCC1(N2CCCCC2)CCCCC1)c1ccc(OC(F)F)cc1`, which protection from apoptosis is on record?
Answer: inactive: 3.69%

Question: With `CCCOc1ccc(C(=O)NCC2(N(C)C)CCCCC2)cc1OC` as the molecule, how does the protection from apoptosis read?
Answer: inactive: 2.59%

Question: With `O=C(NCC1(N2CCCCC2)CCCCC1)c1cncc(Br)c1` as the molecule, how does the protection from apoptosis read?
Answer: inactive: -7.49%

Question: Which protection from apoptosis does the source give for `CN1CCC(Nc2cccc(F)c2)CC1` here?
Answer: inactive: -6.42%

Question: For `O=C(NCC1(N2CCOCC2)CCCCC1)c1cc(F)c(F)cc1Cl`, which protection from apoptosis is on record?
Answer: inactive: -5.15%

Question: Which protection from apoptosis does the source give for `CN(C)c1cccc(C(=O)NCC2(N3CCCCC3)CCCCC2)c1` here?
Answer: inactive: 8.27%

Question: With `CC(C)c1ccc(NC2CCN(C(=O)OC(C)(C)C)CC2)cc1` as the molecule, how does the protection from apoptosis read?
Answer: inactive: 10.9%

Question: For `CCOC(=O)N1CCC(Nc2ccc(OC)cc2)CC1`, which protection from apoptosis is on record?
Answer: inactive: -2.74%

Question: With `COc1ccc(Cl)cc1C(=O)NCC1(N2CCOCC2)CCCCC1` as the molecule, how does the protection from apoptosis read?
Answer: inactive: 3.9%

Question: Which protection from apoptosis does the source give for `O=C(OC1CN2CCC1CC2)C1c2ccccc2Oc2ccccc21` (stereo not given) here?
Answer: inactive: -15.6%

Question: For `N#CC1(Nc2ccccc2)CCN(Cc2ccccc2)CC1`, which protection from apoptosis is on record?
Answer: inactive: 2.23%

Question: For `O=C(NCC1(N2CCCCC2)CCCCC1)c1ccc(Cl)s1`, which protection from apoptosis is on record?
Answer: inactive: -10.4%

Question: Which protection from apoptosis does the source give for `O=C(NCC1(N2CCOCC2)CCCCC1)c1cc2ccccc2o1` here?
Answer: inactive: -3.95%

Question: For `Cc1cc(C)cc(N(C(=O)c2ccccc2)C2CCN(C(=O)OC(C)(C)C)CC2)c1`, which protection from apoptosis is on record?
Answer: inactive: 5.64%

Question: Which protection from apoptosis does the source give for `O=C(NCC1(N2CCCCC2)CCCCC1)c1ccc(Cl)nc1` here?
Answer: inactive: -3.51%

Question: With `CSc1ccccc1C(=O)NCC1(N2CCCCC2)CCCCC1` as the molecule, how does the protection from apoptosis read?
Answer: inactive: -0.917%

Question: For `O=C(NCC1(N2CCCCC2)CCCCC1)c1cccs1`, which protection from apoptosis is on record?
Answer: inactive: -3.74%

Question: With `O=C(NCC1(N2CCCCC2)CCCCC1)c1ccc(=O)[nH]c1` as the molecule, how does the protection from apoptosis read?
Answer: inactive: -4.59%

Question: Which protection from apoptosis does the source give for `COc1ccc(C(=O)NCC2(N3CCCCC3)CCCCC2)c(OC)c1OC` here?
Answer: inactive: -5.77%

Question: For `CC(C)(C)OC(=O)N1CCC(N(C(=O)c2ccccc2)c2ccc(F)cc2)CC1`, which protection from apoptosis is on record?
Answer: inactive: -2.83%

Question: With `COc1ccc(C(=O)NCC2(N3CCCCC3)CCCCC2)cc1` as the molecule, how does the protection from apoptosis read?
Answer: inactive: -6%

Question: Which protection from apoptosis does the source give for `Cc1ccc(OCC(C)C)c(CN(CCCl)CCCl)c1` here?
Answer: inactive: -5.17%

Question: For `COc1cc(C(=O)NCC2(N(C)C)CCCCC2)ccc1OC(F)F`, which protection from apoptosis is on record?
Answer: inactive: 1.64%

Question: With `CCOC(=O)N1CCC(Nc2cccc(C)c2)CC1` as the molecule, how does the protection from apoptosis read?
Answer: inactive: 7.72%

Question: Which protection from apoptosis does the source give for `COc1ccc(NC2CCN(CCc3ccccc3)CC2)c(OC)c1` here?
Answer: inactive: -0.834%

Question: Which protection from apoptosis does the source give for `CCOC(=O)N1CCC(Nc2ccc(F)cc2)CC1` here?
Answer: inactive: -6.49%
